Data reported in ChEMBL document CHEMBL1155369, “Design and optimization of a series of novel 2-cyano-pyrimidines as cathepsin K inhibitors” (Bioorg Med Chem Lett, 2010).

Experiments:
Homo sapiens = species: Homo sapiens; assay: Half life in human plasma
[1] = Half life in Sprague-Dawley rat at 2 mg/kg, iv and 10 mg/kg, po; format: ADME, organism-based; details: in vivo

half-life (Homo sapiens): > 2.5 h | half-life [1]: 2.6 h
Compound: N#Cc1nc(NC2CCCCC2)nc(N2CCNCC2)n1
